Among the data in patent publication US20050208394A1, “Dye-containing curable composition, color filter and method of producing the color filter” (FUJI PHOTO FILM CO., LTD., priority 2004, published 2005) are Light fastness and Heat resistance values, retold here.

Data set [1] can be described thus: Light fastness: change in chromaticity ΔEab* of the coated glass substrate after xenon lamp irradiation. The note with it: xenon lamp 50,000 Lux for 10 hours. In kind it is physicochemical. As to the method: The glass substrate coated with the dye resist solution was irradiated with 50,000 Lux light from a xenon lamp for 10 hours (corresponding to 500,000 Lux·h) and then, a change in chromaticity, namely ΔEab* value, before and after the irradiation was measured. The obtained ΔEab* value was adopted as an index showing the degree of […] and evaluated based on the following criteria. The smaller the ΔEab* value is, the higher the […] is.
• A: ΔEab* was 3 or less. • B: ΔEab* exceeded 3 and was less than 10. • C: ΔEab* was 10 or more. —Pattern Shape—
A cyan pattern image was obtained by carrying out coating, prebaking, irradiation, developing, rinsing and drying in the same manner as in Example 1 and then heated at 180° C. for 5 minutes. Also, the heat resistance, light fastness and pattern shape were evaluated in the same manner as in Example 1 and also the solubility of the dye (exemplified compound (3)) was evaluated visually according to the same criteria as in Example 1 from the degree of solubility when the dye was dissolved in the above “1) Preparation of a dye resist solution (positive type dye-containing curable composition)”.

Data set [2] can be described thus: Heat resistance: change in chromaticity ΔEab* of the coated glass substrate after hot plate heating. In kind it is physicochemical. The note with it: 200° C. for one hour.
The mark [3] stands for this setting: negative type dye resist film on glass.
The mark [4] stands for this setting: positive type dye resist film on glass.

“Tetra-β-(1-benzimidazolyl)zinc phthalocyanine [Exemplified compound (2)]”: the Light fastness result in data set [1] (setting [3]) was “B (ΔEab* exceeded 3 and was less than 10.)”; in data set [1] (setting [4]), “A (ΔEab* was 3 or less.)”. The Heat resistance entry in data set [2] (setting [3]) is “B (ΔEab* exceeded 5 and was less than 10.)”; in data set [2] (setting [4]), “A (ΔEab* was 5 or less.)”.
With “tetra-α-(1-benzimidazolyl)zinc phthalocyanine [Exemplified compound (1)]”, the Light fastness result in data set [1] (setting [4]) is reported as “A (ΔEab* was 3 or less.)”.
